scFv variants of Ab-14 (light chain) against a SARS-CoV-2 spike peptide

Antigen: PDVDLGDISGINAS, a 14-residue peptide of the SARS-CoV-2 spike HR2 region.

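These sequences belong to a second round, designed from the earlier measurements on random variants of the parent. Several design methods are mixed in this list. AlphaSeq pools MATa yeast showing the antibodies with MATalpha yeast showing the peptide. The frequency of each diploid, read from paired DNA barcodes, reflects how well the two displayed proteins bind. A regression on co-assayed BCL2-family reference pairs converts the normalised counts of each replicate to an apparent Kd. There are six technical replicates.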

Parent: Ab-14, a human scFv built as VH, a (GGGGS)3 linker, VL. Only the CDRs of the light chain vary.
VH: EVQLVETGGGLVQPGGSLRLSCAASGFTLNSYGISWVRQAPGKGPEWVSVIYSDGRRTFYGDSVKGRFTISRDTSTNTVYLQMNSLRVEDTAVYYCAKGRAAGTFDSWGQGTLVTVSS
VL: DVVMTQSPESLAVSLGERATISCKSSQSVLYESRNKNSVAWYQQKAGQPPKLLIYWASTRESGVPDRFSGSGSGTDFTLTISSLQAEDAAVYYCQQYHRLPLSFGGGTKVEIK

The parent's light chain CDRs are KSSQSVLYESRNKNSVA, WASTRES, QQYHRLPLS; each variant's own CDRs replace them letter for letter.
This list holds designs with more than six substitutions.
Each Kd is an estimate from the mating assay, the geometric mean of the replicates in which the pair was seen; lower is stronger.
An entry "no signal" has no value in the source: the pair was not observed among the diploids in any replicate. This suggests poor binding but is not conclusive.
The range of this assay differs from that of the first round, and the authors advise against merging the two.

| CDR-L1 | CDR-L2 | CDR-L3 | Kd (apparent) | replicates with signal |
|---|---|---|---|---|
| HLSDTVMQGSYYRNSVA | QEQTRAD | QQYHRLPLS | 3.5 nM | 6/6 |
| HISELMYYQSRNKNNIA | EMSTRER | QHYHRLPLS | 1.3 nM | 6/6 |
| IVSQLMLWGMHVKNSIA | EAVTRLN | QQYDRLPLF | no signal | 0/6 |
| QVFFDLFEQGKRSQPIA | GGSMRET | QQYARLPLV | 5.6 nM | 6/6 |
| TISMSMNWLTFNKNNIA | EESTREK | QQYDRLPLS | 43 nM | 6/6 |
| KLSMITGHMSVSKNNVA | EMATREN | QQYDRLPLS | 5.3 nM | 6/6 |
| QMTGQLFEQGNRSGPIA | HESMKET | QQYAQLPLT | 54 nM | 6/6 |
| KISFWSYRGSLWHNNIA | EGSQRAE | QQYSRLPLN | 62 nM | 6/6 |
| KFGQMVLTGAYVSNSVA | QMSTRVN | QQYHRLPLM | 5.6 nM | 5/6 |
| TISQMSTLFSQSINNVA | EVSTREQ | QQYDRLPLA | 11 nM | 6/6 |
| KVSQKDPMGSRNKNSVA | HASLRES | QQYHRLPLS | 5.9 nM | 6/6 |
| KVSEFMRGLTQRKDSIA | DNVTRNN | QQYDRLPLS | no signal | 0/6 |
| TISQITSLFSQKINNVA | EVTEREQ | QQYDRLPLS | 10 nM | 6/6 |
| KLSILHQVESINKSNVA | EMVTRES | QQYDRLPLS | 150 nM | 4/6 |
| KVSPSQEYWSRNKQSVA | HASLREE | QQYHRLPLS | 6.4 nM | 6/6 |
| KIDQWELGESVNKNSVA | NASTRME | QQYHRLPLS | 1.2 nM | 6/6 |
| KVSQSLLKESTNKNSVA | WASTREH | NQYHRMPLS | no signal | 0/6 |
| NLSDGEMYENATRSHIA | DTSMRDF | QQYNRLPLD | 27 nM | 6/6 |
| KLQGFSNNMNDIWNSIA | DESMLHT | QHYDRLPLV | 37 nM | 6/6 |
| TISTSMRYESSLKNAIA | NAQTRED | QQYHRLPIS | 4.3 nM | 6/6 |
| KLSSYTGTEKVHGNNVA | EMETRER | QQYNRLPLA | 1.9 nM | 6/6 |
| KLQSITGTEKVKGNNVA | EMETRER | QQYNRLPLA | 2.0 nM | 6/6 |
| KISQMVRVGSTHNNSIA | EEQTRAK | QQYHRLPLS | 24 nM | 6/6 |
| KQAQAFLMESRNKNSVA | DANTRES | QQYHRLPLS | 1.5 nM | 6/6 |
| TLYGLSNSMSTNKNSVA | EMTTREK | QQYDRLPLI | 170 nM | 1/6 |
| KISMMSSIESITHNSVA | QTSTREN | QQYDRLPLS | 2.0 nM | 6/6 |
| MISDLTYYGLRNMNSVA | DLSTRGN | QQYDRLPLS | 3.3 nM | 6/6 |
| KLSNSYEYESNNSNSVA | NASQREH | QQYHRLPLR | 6.6 nM | 6/6 |
| MISQLYNMGTFAINSVA | QASIRNE | QQYDRLPLM | 75 nM | 6/6 |
| LISGVIDYGSRNYNSVA | QTSTRES | QQYDRLPLE | 49 nM | 6/6 |
| SLAYTQHFGQAGGKAVA | EVQMRCQ | QQYFRLPLG | no signal | 0/6 |
| TVGQVTMVESYNKDSVA | QASTRLQ | QDYHRLPLS | 3.8 nM | 6/6 |
| MIEIIQDNYDEMRSAIA | DTNLVRM | QQYYHLPLM | 21 nM | 2/6 |
| KLSQSVLFWGHAINSVA | EMETREK | QQYDRLPLS | 2.3 nM | 6/6 |
| HVSQSVLQEQRNKNSVA | EASQRER | QQYHRLPLS | 3.6 nM | 6/6 |
| LLQGSEGYESRNKNSVA | DASTRES | QAYHRLPLS | 1.3 nM | 6/6 |
| QIFFNDFQYDIESQNIA | QASLREV | QQYARLPLV | 8.3 nM | 6/6 |
| MLTMFANENAGWSNNIA | DTNNLNT | QQYQRLPFM | 79 nM | 6/6 |
| KLHQSVDMESRNKNSVA | SASTRED | QQYHRLPLA | 1.8 nM | 6/6 |
| KFMQSMSYENRNKNSVA | TASERES | QQPHQLPLS | 100 nM | 1/6 |
| HMSFLTLGGMRQKNSVA | QMTTREN | QQYDRLPLV | 4.8 nM | 6/6 |
| YISMMHAGQVNESSSIA | NAEQTED | QQYHELPLV | no signal | 0/6 |
| NISHFLQNTMKNSNNVA | EMTMREV | QQYHHLPLS | 9.2 nM | 6/6 |
| ILYETVGTLSRNKNSVA | DNSTRES | QQYDRLPLS | 190 nM | 2/6 |
| MIEEGQLGENKNSSNIA | SQDQKTD | QQYQRLPLI | 59 nM | 3/6 |
| MISQVLNTLTKQGNNVA | DLQNRED | QQYFRLPLS | 78 nM | 6/6 |
| RIFYNEEEDLRHKSSIA | NGSARVF | QQYYMLPLS | 4.2 nM | 6/6 |
| KYSQSDEYESRQFNSVA | NASTRMM | QQYHRLPLS | 1.6 nM | 6/6 |
| KLTMMYQHTSINKNNIA | ERSTREE | QQYHHLPLS | 2.4 nM | 6/6 |
| TISQVMNTLTRNENNVA | DLTEREK | QQYFRLPLS | 1.1 nM | 6/6 |
| TISQMSTLFSQTINNVA | EVSTREQ | QQYDRLPLI | 7.6 nM | 6/6 |
| RMNKFMSGITEAKNSVA | GAEHRAQ | QSYHRLPLS | 16 nM | 4/6 |
| KVAQGIFDGKRHSHSIA | EVSHLCD | QQYSRLPLE | 9.8 nM | 6/6 |
| KLSYSVEYQDRNKNSVA | QASQRES | QQYHRLPLS | 630 pM | 6/6 |
| TISMHTSLFSQTINNVA | EVSTRER | QQYDRLPLV | 14 nM | 6/6 |
| IVSQLMLIGMHAKNSIA | EASTRLN | QQYERLPLF | no signal | 0/6 |
| KLTMITGLEKVSGANVA | EMETREK | QQYNRLPLS | 2.4 nM | 6/6 |
| MISDLTMYGLRNVNSVA | DLSMRGS | QQYDRLPLS | 1.8 nM | 6/6 |
| TITQSVLMTGLNRNSVA | QAEERLE | QQYHRLPLS | 6.3 nM | 6/6 |
| HLSQSQDYESRNKNSVA | NASQRYQ | QQYHRLPLS | 810 pM | 6/6 |
| KVSQGMWYESRMKNSVA | NASMREQ | QQYHRLPLQ | 2.3 nM | 6/6 |
| TVKMELEMFAQDKHSVA | EAVERES | QQYHRLPLI | 3.4 nM | 6/6 |
| KITQTMRFEQKASNNIA | EVTQRSK | QQYYRLPLS | 2.7 nM | 6/6 |
| TISMVMNTLQRHGNNVA | DLAERED | QQYFRLPLS | 2.7 nM | 6/6 |
| MLSDTVMYGSYSRNSVA | QESTRAE | QQYHHLPLS | 4.1 nM | 6/6 |
| QISDLVKMESRNTNSVA | DNSTRGS | QQYDRLPLS | 75 nM | 6/6 |
| KVSNQADYEDRNKNSVA | DASTRES | QQYHRLPLS | 1.3 nM | 6/6 |
| KLMNSLDAFKQWEDNIA | ETEHKVA | QQYYHLPLT | 400 nM | 2/6 |
| KLSQGWLYESRNANNVA | NASWREQ | QQYHRLPLS | 1.1 nM | 6/6 |
| TLHANIEYGGGMWKSIA | DNVQRAD | QYYQRLPLG | 2.4 nM | 6/6 |
| MFEEYQSEGGANNNNVA | DHNCGIR | QQYYRLPLT | 38 nM | 1/6 |
| QIYQAMHTLMQVKNNIA | DVTNRNN | QQYHRLPLS | 5.7 nM | 6/6 |
| KIGGVTNGTSRNKNSVA | EQSTRES | QQYNRLPLS | 13 nM | 6/6 |
| MVSQLMVWGLHAKNSIA | EAQMRLN | QQYDRLPLF | 180 nM | 6/6 |
| HITDLMYFNNEGEKNIA | DKNISVM | QQYFRLPLS | 1.7 nM | 6/6 |
| MLSQMWGLGSKVKNSVA | QASMRFN | QQYDRLPLI | 29 nM | 5/6 |
| LMNERMMMGENQQHNIA | NAAHLVK | QDYHRLPLG | 15 nM | 6/6 |
| KISQMVTYESTWHNAIA | QTSEREE | QQYHRLPFS | 3.6 nM | 6/6 |
| SLAYTQHFGFSQEKAIA | EVATREQ | QQYFRLPLT | 12 nM | 6/6 |
| TLYGLTNSMSKNKDSVA | EMSTREA | QQYDRLPLI | 100 nM | 6/6 |

A selection of 8 entries from above:

| CDR-L1 | CDR-L2 | CDR-L3 | Kd (apparent) | replicates with signal |
|---|---|---|---|---|
| MISDLTMYGLRNVNSVA | DLSMRGS | QQYDRLPLS | 1.8 nM | 6/6 |
| TLYGLTNSMSKNKDSVA | EMSTREA | QQYDRLPLI | 100 nM | 6/6 |
| KLSNSYEYESNNSNSVA | NASQREH | QQYHRLPLR | 6.6 nM | 6/6 |
| QIFFNDFQYDIESQNIA | QASLREV | QQYARLPLV | 8.3 nM | 6/6 |
| SLAYTQHFGQAGGKAVA | EVQMRCQ | QQYFRLPLG | no signal | 0/6 |
| KISQMVTYESTWHNAIA | QTSEREE | QQYHRLPFS | 3.6 nM | 6/6 |
| RMNKFMSGITEAKNSVA | GAEHRAQ | QSYHRLPLS | 16 nM | 4/6 |
| HITDLMYFNNEGEKNIA | DKNISVM | QQYFRLPLS | 1.7 nM | 6/6 |

The authors averaged sequences with at least three values out of six and counted those with two or fewer as poor binders.
The parent sequence was in this pool as ten entries: three were never detected, three once, and four in most replicates, with averages from 2.2 nM to 240 nM.
Three control strains display no target. For all light chain designs, 4% of the pairings with them gave a signal, with a median of 430 nM and one signal in twenty below 38 nM, so weak values seen in few replicates may be background.

Data: MIT Lincoln Laboratory AlphaSeq set, Li et al. 2023, doi:10.1038/s41467-023-39022-2, as distributed in FLAb.